## Antibody variant affinities, Ab-14 light chain, assay 1

Data: MIT Lincoln Laboratory AlphaSeq set, Engelhart et al. 2022, doi:10.1038/s41597-022-01779-4, as distributed in FLAb.

The target is the same throughout: PDVDLGDISGINAS, from the HR2 region of SARS-CoV-2 spike.

Parent: Ab-14, a human scFv built as VH, three GGGGS repeats, VL. Only the CDRs of the light chain vary.
VH: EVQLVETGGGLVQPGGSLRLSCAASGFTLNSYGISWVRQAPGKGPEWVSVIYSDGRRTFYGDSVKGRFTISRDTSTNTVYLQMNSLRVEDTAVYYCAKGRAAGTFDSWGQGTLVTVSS
VL: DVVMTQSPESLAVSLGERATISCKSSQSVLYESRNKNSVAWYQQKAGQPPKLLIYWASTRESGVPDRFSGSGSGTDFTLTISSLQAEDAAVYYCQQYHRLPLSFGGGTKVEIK

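AAYL50 was designed without a model: most single CDR substitutions and a random sample of double and triple ones. The assay is AlphaSeq: two haploid yeast populations carry antibody and antigen on their surface. Pairs that bind mate more often; barcode pairs of the diploids are counted by sequencing. Scores were corrected for input abundance and mapped to Kd with protein pairs of known affinity run in the same pool. Each pool was mated in three replicate cultures.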

Variants are written as CDR1, CDR2 and CDR3 of the light chain (limits as in the source). Parent: KSSQSVLYESRNKNSVA, WASTRES, QQYHRLPLS.
Scale: log10 of Kd in nM, estimated from mating counts; low values are strong binders.
A pair that was not seen in that replicate is written "n.d."; this usually means weak binding, but a binder can also be missed.
For reference, the parent read 0.65 as the reference entry and 1.68 as a member of this library.

CDR-L1	CDR-L2	CDR-L3	log10 Kd (nM) by replicate	signal with controls
KSSQSVLYESRNKNSVA	WASGRES	QQYHRKGLS	n.d. n.d. n.d.	2/9 (3.38)
RCSQSVLYESRNKNSVA	WASTREA	QQYHRLPLS	0.22 0.48 0.29	7/9 (4.61)
KSSQSVLYESRNKCSGA	WASTRQS	QQYHRLPLS	5.91 n.d. n.d.	5/9 (4.28)
KSSQSVLYESRNKNSEA	WASTRES	QQYHRLPQS	3.91 n.d. n.d.	2/9 (3.97)
KSSQSALYESRNKNSVA	WWSTRES	QQYHRLPIS	3.91 4.44 4.86	6/9 (4.42)
KSSQSVLYESRNKNSVA	WASTRES	QQIHQLPLS	1.70 1.90 1.70	2/9 (4.42)
KRSQSVLVESRNENSVA	WASTRES	QQYHRLPLS	1.31 1.58 1.61	2/9 (3.64)
KSSTSVLYESRNKNSMA	WASTRES	HQYHRLPLS	1.40 1.14 1.63	0/9
KSSQIVLYESRNKNSIA	WASTRES	QFYHRLPLS	n.d. n.d. n.d.	0/9
KSSQSVLYESRNVNSVF	WASTRES	QQYHRLTLS	n.d. n.d. n.d.	0/9
KSSQSFLYESRNKNSVA	WASHRES	QQYHRLPLS	1.61 1.62 1.85	2/9 (4.02)
KESQSVLYESRNKNRVA	WAPTRES	QQYHRLPLS	n.d. 4.73 5.08	1/9 (4.90)
KSSQPVLYESRFKNSVA	WASTRES	QQYHRLPLT	n.d. n.d. n.d.	0/9
KSSQSVLYESRNKNSVA	WASSRES	QFYHWLPLS	1.25 1.61 1.41	2/9 (5.07)
KSDQLVLYESRNKNSVA	WASTRES	QQYHRKPLS	n.d. n.d. n.d.	1/9 (3.96)
KSSVSKLYESRNKNSVA	WASTRES	QQYHRLPLQ	5.57 2.81 3.60	2/9 (4.73)
KSSQSVLYESRNVNSVA	WVSTRES	QQYHRWPLS	3.03 2.92 3.45	5/9 (4.11)
KSSISVLYESRNKNSVS	WASTRES	QQDHRLPLS	n.d. n.d. 4.24	0/9
KSSQSVLYGSRNKNSLA	WASTRES	QQSHRLPLS	n.d. 3.89 n.d.	2/9 (4.51)
KSSQSWLYESRNKNSVA	WRSTRES	QQYHRLYLS	3.92 n.d. 4.05	0/9
KSSQSVLAESRNKNSVA	WASTRRS	QQYHVLPLS	n.d. n.d. n.d.	0/9
KSSQSVLYDSRNKNSVA	WASTRES	QNYHRMPLS	2.57 n.d. 2.59	1/9 (3.18)
KSSASVLYESRNKNSVA	WASTRES	QQYHKLPLS	0.97 1.33 1.01	3/9 (4.85)
KSSTSVLYESRNKNSGA	WASTRES	QQYRRLPLS	4.12 n.d. n.d.	0/9
KSSQSVLYESRNKNSVA	WASWRES	QLYHRMPLS	n.d. n.d. n.d.	2/9 (3.77)
KSSQSVLTESRNRNIVA	WASTRES	QQYHRLPLS	n.d. n.d. n.d.	4/9 (4.13)
KSVQSVLSESRNKNSVA	WASTRES	QQYKRLPLS	n.d. n.d. n.d.	0/9
KSSIKVLYESRNKNAVA	WASTRES	QQYHRLPLS	2.93 2.84 2.94	3/9 (4.09)
KSSQSVLYESRNKNSVA	WASTRES	QQNHRLPLS	3.77 2.59 3.31	0/9
KSSESVLYEGRNKNSVA	WRSTRES	QQYHRLPLS	1.50 2.05 1.96	4/9 (4.21)
KSSQSVLYESRNMNSVR	KASTRES	QQYHRLPLS	n.d. n.d. n.d.	1/9 (3.81)
KQSQSVLYESRNKNSVQ	WASTRES	QQYHRLELS	n.d. n.d. 5.36	0/9
KSSQSVLYESRNKNSVA	WKLTRES	QQYHRLPLE	n.d. n.d. n.d.	0/9
KSSQSVLYECRNKNSVR	WASTRES	QQYHRLPLK	n.d. n.d. n.d.	0/9
KSWQSVLYESRNKNSWA	WASTRES	QQYHRLPLS	n.d. 5.61 3.42	6/9 (5.09)
KSSQSVLYESYNKNSVA	WASTREK	QQAHRLPLS	4.96 n.d. 4.40	2/9 (3.42)
KSSQFVLYDSRNANSVA	WASTRES	QQYHRLPLS	0.76 0.96 0.98	2/9 (4.02)
KSSQSVLYESRNKNSVA	HASTSES	QQGHRLPLS	0.58 0.81 0.80	2/9 (4.22)
KSSQSSLYESRNKNAVA	WASTRES	QQYHRLPNS	n.d. n.d. n.d.	1/9 (3.54)
KSSQSVLFESRNKNSVA	WASTRES	AQYHRLPLS	2.84 2.46 3.16	1/9 (3.01)

Background: pairings of library AAYL50 with three empty control strains gave a value in 18% of cases (median 4.19, 5th percentile 2.99). Values in that range, when seen in few replicates, are hard to tell from nonspecific mating. For each scFv, signals with the empty controls are counted beside the result, with their mean in brackets.